Assay results from patent US11248234B2, “Herbicide-resistant hydroxyphenylpyruvate dioxygenases” (BASF SE, priority 2015, dated 2022).

The chains behind the UniProt entries cited, without tags or fusion partners.
UniProt A0A383WMN4, entry or part of it N195D/DEL398-433: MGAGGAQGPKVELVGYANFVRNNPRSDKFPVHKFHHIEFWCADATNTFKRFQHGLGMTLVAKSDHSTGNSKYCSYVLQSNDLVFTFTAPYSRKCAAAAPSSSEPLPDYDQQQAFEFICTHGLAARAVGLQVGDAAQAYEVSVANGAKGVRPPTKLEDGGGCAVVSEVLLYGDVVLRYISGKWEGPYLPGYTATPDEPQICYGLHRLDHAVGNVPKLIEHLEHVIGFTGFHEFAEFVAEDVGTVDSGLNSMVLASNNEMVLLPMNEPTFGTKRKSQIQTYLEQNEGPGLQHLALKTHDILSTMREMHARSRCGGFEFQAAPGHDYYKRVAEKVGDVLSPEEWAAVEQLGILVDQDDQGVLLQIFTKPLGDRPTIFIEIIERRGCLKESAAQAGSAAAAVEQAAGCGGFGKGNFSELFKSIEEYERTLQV
UniProt A0A383WMN4, entry or part of it N195D: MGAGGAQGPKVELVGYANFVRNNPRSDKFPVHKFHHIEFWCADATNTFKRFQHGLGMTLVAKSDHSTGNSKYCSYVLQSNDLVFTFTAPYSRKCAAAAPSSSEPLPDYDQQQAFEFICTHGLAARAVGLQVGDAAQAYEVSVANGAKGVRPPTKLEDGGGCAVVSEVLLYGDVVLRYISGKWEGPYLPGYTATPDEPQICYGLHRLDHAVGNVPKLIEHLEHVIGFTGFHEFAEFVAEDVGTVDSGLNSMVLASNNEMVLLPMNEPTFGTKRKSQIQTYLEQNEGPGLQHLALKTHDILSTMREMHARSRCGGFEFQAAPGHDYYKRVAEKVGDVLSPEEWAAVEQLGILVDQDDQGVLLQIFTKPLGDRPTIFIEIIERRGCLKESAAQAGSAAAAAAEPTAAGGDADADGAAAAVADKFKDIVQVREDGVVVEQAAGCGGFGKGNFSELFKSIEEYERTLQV

Tests used:
Experiment in all cases: In vitro HPPD activity assay
SoHPPD H306K (short) = type: biochemical, Scenedesmus obliquus; conditions: normalized on Arabidopsis wild-type HPPD (SEQ ID NO:42)
Experimental: (§1) HPPD produces homogentisic acid and CO2 from 4-hydroxyphenylpyruvate (4-HPP) and O2. The activity assay for HPPD is based on the analysis of homogentisic acid by reversed phase HPLC.
(§2) The assay mixture can contain 150 mM potassium phosphate buffer pH 7.0, 50 mM L-ascorbic acid, 100 μM Catalase (Sigma-Aldrich), 1 μM FeSO4 and 0.2 units of purified mutated HPPD enzyme in a total volume of 505 μl. 1 unit is defined as the amount of enzyme that is required to produce 1 nmol of HGA per minute at 20° C.
(§3) After a preincubation of 30 min the reaction is started by adding 4-HPP to a final concentration of 0.05 mM. The reaction is allowed to proceed for 45 min at room temperature. The reaction is stopped by the addition of 50 μl of 4.5 M phosphoric acid. The sample is filtered using a […] pore size PVDF filtration device.
(§4) 5 μl of the cleared sample is analyzed on an UPLC HSS T3 column (particle size 1.8 μm, dimensions 2.1×50 mm; Waters) by isocratic elution using 90% 20 mM NaH2PO4 pH 2.2, 10% methanol (v/v).
(§5) HGA is detected electrochemically at 750 mV (mode: DC; polarity: positive) and quantified by integrating peak areas (Empower software; Waters).
(§6) Inhibitors are dissolved in DMSO (dimethylsulfoxide) to a concentration of 0.5 mM. From this stock solution serial five-fold dilutions are prepared in DMSO, which are used in the assay. The respective inhibitor solution accounts for 1% of the assay volume. Thus, final inhibitor concentrations range from 5 μM to 320 pM, respectively. Activities are normalized by setting the uninhibited enzyme activity to 100%. IC50 values are calculated using non-linear regression.
(§7) Using methods which are described in the above examples or well known in the art, purified, recombinant mutated HPPD enzymes are characterized with respect to their kinetic properties and sensitivity towards HPPD inhibiting herbicides. Apparent michaelis constants (Km) and maximal reaction velocities (Vmax) are calculated by non-linear regression with the software GraphPad Prism 5 (GraphPad Software, La Jolla, USA) using a substrate inhibition model. Apparent kcat values are calculated from Vmax assuming 100% purity of the enzyme preparation. Weighted means (by standard error) of Km and IC50 values are calculated from at least three independent experiments. The Cheng-Prusoff equation for competitive inhibition (Cheng, Y. C.; Prusoff, W. H. Biochem Pharmacol 1973, 22, 3099-3108) is used to calculate dissociation constants (Ki).
(§8) Field performance of the HPPD enzyme, which is used as a herbicide tolerance trait may depend not only on its lack of sensitivity towards HPPD inhibiting herbicides but also on its activity. To assess the potential performance of a herbicide tolerance trait a tolerance index (TI) is calculated using the following formula: […]
(§9) Easy comparison and ranking of each trait is enabled by normalizing tolerance indexes on Arabidopsis wild-type HPPD.

[1] = system: SoHPPD L367V, I375L (short); type: biochemical, Scenedesmus obliquus; conditions: normalized on Arabidopsis wild-type HPPD (SEQ ID NO:42)
Experimental: as §1, §2, §3, §4, §5, §6, §7, §8, §9

SoHPPD I455V = type: biochemical, Scenedesmus obliquus; conditions: normalized on Arabidopsis wild-type HPPD (SEQ ID NO:42)
Experimental: as §1, §2, §3, §4, §5, §6, §7, §8, §9

[2] = system: SoHPPD Q317H, A318G, E345Q; type: biochemical, Scenedesmus obliquus; conditions: normalized on Arabidopsis wild-type HPPD (SEQ ID NO:42)
Experimental: as §1, §2, §3, §4, §5, §6, §7, §8, §9

[3] = system: SoHPPD A318R, L350M (short); type: biochemical, Scenedesmus obliquus; conditions: normalized on Arabidopsis wild-type HPPD (SEQ ID NO:42)
Experimental: as §1, §2, §3, §4, §5, §6, §7, §8, §9

SoHPPD L367V, I375L = type: biochemical, Scenedesmus obliquus; conditions: normalized on Arabidopsis wild-type HPPD (SEQ ID NO:42)
Experimental: as §1, §2, §3, §4, §5, §6, §7, §8, §9

SoHPPD Q317H = type: biochemical, Scenedesmus obliquus; conditions: normalized on Arabidopsis wild-type HPPD (SEQ ID NO:42)
Experimental: as §1, §2, §3, §4, §5, §6, §7, §8, §9

[4] = system: SoHPPD K326E, E345Q (short); type: biochemical, Scenedesmus obliquus; conditions: normalized on Arabidopsis wild-type HPPD (SEQ ID NO:42)
Experimental: as §1, §2, §3, §4, §5, §6, §7, §8, §9

[5] = system: SoHPPD R327G, E421D (short); type: biochemical, Scenedesmus obliquus; conditions: normalized on Arabidopsis wild-type HPPD (SEQ ID NO:42)
Experimental: as §1, §2, §3, §4, §5, §6, §7, §8, §9

[6] = system: SoHPPD V251A, H306R, Q317L, A318P, G321P, K331E, L350M (short); type: biochemical, Scenedesmus obliquus; conditions: normalized on Arabidopsis wild-type HPPD (SEQ ID NO:42)
Experimental: as §1, §2, §3, §4, §5, §6, §7, §8, §9

SoHPPD E345Q (short) = type: biochemical, Scenedesmus obliquus; conditions: normalized on Arabidopsis wild-type HPPD (SEQ ID NO:42)
Experimental: as §1, §2, §3, §4, §5, §6, §7, §8, §9

SoHPPD E379Q (short) = type: biochemical, Scenedesmus obliquus; conditions: normalized on Arabidopsis wild-type HPPD (SEQ ID NO:42)
Experimental: as §1, §2, §3, §4, §5, §6, §7, §8, §9

SoHPPD I419V (short) = type: biochemical, Scenedesmus obliquus; conditions: normalized on Arabidopsis wild-type HPPD (SEQ ID NO:42)
Experimental: as §1, §2, §3, §4, §5, §6, §7, §8, §9

SoHPPD V251A (short) = type: biochemical, Scenedesmus obliquus; conditions: normalized on Arabidopsis wild-type HPPD (SEQ ID NO:42)
Experimental: as §1, §2, §3, §4, §5, §6, §7, §8, §9

[7] = system: SoHPPD A318P, A319P (short); type: biochemical, Scenedesmus obliquus; conditions: normalized on Arabidopsis wild-type HPPD (SEQ ID NO:42)
Experimental: as §1, §2, §3, §4, §5, §6, §7, §8, §9

SoHPPD F363I = type: biochemical, Scenedesmus obliquus; conditions: normalized on Arabidopsis wild-type HPPD (SEQ ID NO:42)
Experimental: as §1, §2, §3, §4, §5, §6, §7, §8, §9

[8] = molecular target: Scenedesmus Short HPPD (Seq ID: 4) (Tetradesmus obliquus, UniProt A0A383WMN4, DEL398-433/N195D); type: biochemical; conditions: for TI (normalized tolerance index): normalized on Arabidopsis wild-type HPPD (SEQ ID NO:42); for TI (tolerance index): not normalized
Experimental: as §1, §2, §3, §4, §5, §6, §7, §8, §9

[9] = molecular target: Scenedesmus HPPD (Seq ID: 2) (Tetradesmus obliquus, UniProt A0A383WMN4, N195D); type: biochemical; conditions: for TI (normalized tolerance index): normalized on Arabidopsis wild-type HPPD (SEQ ID NO:42); for TI (tolerance index): not normalized
Experimental: as §1, §2, §3, §4, §5, §6, §7, §8, §9

[10] = system: Scenedesmus HPPD with glutamine 317 exchanged to methionine, alanine 318 substituted by glycine and glutamate 345 mutated to glutamin; type: biochemical, Scenedesmus obliquus; conditions: in words, from Table 6 data
Experimental: as §1, §2, §3, §4, §5
as §6, with “Thus, final inhibitor concentrations range from 5 μM to 320 pM, respectively.” left out
as §7, with “Apparent kcat values are calculated from Vmax assuming 100% purity of the enzyme preparation.” left out, “experiments.” for “experiments. The Cheng-Prusoff equation for competitive inhibition (Cheng, Y. C.; Prusoff, W. H. Biochem Pharmacol 1973, 22, 3099-3108) is used to calculate dissociation constants (Ki).”
as §8, §9

Row | SMILES | TI (normalized tolerance index) (SoHPPD H306K (short)) | TI (normalized tolerance index) [1] | TI (normalized tolerance index) (SoHPPD I455V) | TI (normalized tolerance index) [2] | TI (normalized tolerance index) [3] | TI (normalized tolerance index) (SoHPPD L367V, I375L) | TI (normalized tolerance index) (SoHPPD Q317H) | TI (normalized tolerance index) [4] | TI (normalized tolerance index) [5] | TI (normalized tolerance index) [6] | TI (normalized tolerance index) (SoHPPD E345Q (short)) | TI (normalized tolerance index) (SoHPPD E379Q (short)) | TI (normalized tolerance index) (SoHPPD I419V (short)) | TI (normalized tolerance index) (SoHPPD V251A (short)) | TI (normalized tolerance index) [7] | TI (normalized tolerance index) (SoHPPD F363I) | TI (normalized tolerance index) [8] | TI (tolerance index) [8] | TI (normalized tolerance index) [9] | resistance of the enzyme to the inhibitor [10] | other results
1 | CN(c1c(Cl)ccc(C2=C(O)c3ncccc3C(C)(C)S2(=O)=O)c1Cl)S(C)(=O)=O [Inhibitor 3, N-[2,6-dichloro-3-(8-hydroxy-5,5-dimethyl-6,6-dioxo-thiopyrano[4,3-b]pyridin-7-yl)phenyl]-N-methyl-methanesulfonamide] | 0.8 | 1.0 | 1.4 | 1.0 | 2.5 | 0.5 | 0.8 | 0.1 | 1.2 | 1.1 | 0.6 | 0.2 | 0.9 | 0.1 | 2.0 | 0.8 | 4.6 | 110E−3 | 0.2 | conferred resistance | TI (tolerance index) [9]: 4.41E−3
2 | Cc1c(C(=O)c2cnn(C)c2O)ccc(S(C)(=O)=O)c1C1=NOCC1 [Inhibitor 1, [3-(4,5-dihydroisoxazol-3-yl)-2-methyl-4-methylsulfonyl-phenyl]-(5-hydroxy-1-methyl-pyrazol-4-yl)methanone] | 1.6 | 3.6 | 3.3 | 1.9 | 12.9 | 1.2 | 1.9 | 0.3 | 4.0 | 11.5 | 0.7 | 0.7 | 0.8 | 0.5 | 4.6 | 4 | 9.3 | 8.85E−3 | 0.4 | conferred resistance | TI (tolerance index) [9]: 0.42E−3
3 | CSc1c(Cl)cc(F)c(C(=O)Nc2nnnn2C)c1Cl [Inhibitor 7, 2,4-dichloro-6-fluoro-3-methylsulfanyl-N-(1-methyltetrazol-5-yl)benzamide] | 0.2 | 0.4 | 0.3 | 0.1 | 0.7 | 0.0 | 0.1 | 0.1 | 0.5 | 0.1 | 0.1 | 0.2 | 0.2 | 0.0 | 0.6 | 0.2 | 0.4 |  | 0.1 | conferred resistance | 
4 | Cc1nonc1NC(=O)c1ccc(S(C)(=O)=O)c(S(C)(=O)=O)c1C [Inhibitor 6, 2-methyl-N-(4-methyl-1,2,5-oxadiazol-3-yl)-3,4-bis(methylsulfonyl)benzamide] | 1.2 | 2.1 | 2.1 | 0.8 | 8.6 | 0.6 | 1.0 | 0.2 | 2.7 | 18.2 and 18.3 | 1.2 | 0.5 | 1.5 | 0.4 | 3.3 | 61.1 | 6.6 |  | 0.3 | conferred resistance | 

Where “and” joins values, the source holds several entries; their conditions need not be identical. Identical values can stand only once.
